{
  "sequences": {"note": "By UniProt entry, the sequences of proteins in these tests, tags left out.", "UniProt F5L3B8, entry or part of it": "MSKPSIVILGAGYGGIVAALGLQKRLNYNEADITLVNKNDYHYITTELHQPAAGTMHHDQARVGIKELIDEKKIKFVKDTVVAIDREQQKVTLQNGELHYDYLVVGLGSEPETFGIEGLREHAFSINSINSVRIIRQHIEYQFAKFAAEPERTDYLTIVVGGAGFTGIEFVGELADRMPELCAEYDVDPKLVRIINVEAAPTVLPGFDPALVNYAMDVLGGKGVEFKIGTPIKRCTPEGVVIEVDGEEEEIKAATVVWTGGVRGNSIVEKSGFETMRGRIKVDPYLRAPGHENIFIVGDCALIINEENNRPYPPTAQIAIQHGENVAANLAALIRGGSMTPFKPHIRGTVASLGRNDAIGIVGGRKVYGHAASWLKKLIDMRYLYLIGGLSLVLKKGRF"},
  "source": "paper PMC6167311",
  "about": "“Structure of the NDH-2 – HQNO inhibited complex provides molecular insight into quinone-binding site inhibitors” (Biochimica et Biophysica Acta, 2018)",
  "target": "T1, NDH-2 (type II NADH:quinone oxidoreductase) (Caldalkalibacillus thermarum, UniProt F5L3B8)",
  "T1 construct": "gene CathTA2_0279",
  "data": [
    {"smiles": "Cc1cc2nc3c(=O)[nH]c(=O)nc-3n(C[C@H](O)[C@H](O)[C@H](O)COP(=O)(O)OP(=O)(O)OC[C@H]3O[C@@H](n4cnc5c(N)ncnc54)[C@H](O)[C@@H]3O)c2cc1C", "note": "[FAD]", "values": [
      {"measurement": "crystal structure at 2.8 Å (FAD modelled, with HQNO)", "result": "An overview of the NDH-2–HQNO complex structure showing the location of the membrane interface (dashed-line), FAD (blue) and HQNO (yellow)."}
    ]}
  ]
}
